Values of other authors in patent publication US20210137911A1, “NOVEL CHRONOTHERAPY BASED ON CIRCADIAN RHYTHMS” (THE TRUSTEES OF THE UNIVERSITY OF PENNSYLVANIA, priority 2014, published 2021).
Read-outs that look alike come from different tables or passages of the source.

Conditions: cited from earlier work

Substance	½ Life (half-life of therapeutic compound as listed in Table 1) [h]	½ Life (in vivo) [h]
Gentamicin	3	
Iron Dextran		5
